# This is a selection; strong and weak results do not stand in their true shares. Calls of active or inactive are those of the source.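 How the source made its calls: active means interference check ratio from 0.5 to 1.5 plus GFP to RFP signal ratio inhibition reaching or exceeding a fixed threshold (cut at about 30% in these data, passing the limit was not always enough); inactive means the rest.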
# Experiment: gst-4 reporter inhibition in live C. elegans – whole organism, uHTS, GFP/RFP fluorescence ratio, strain VP596, SKN-1 inhibitor project, primary screen (AID 624304)
# Settings: C. elegans VP596 Pgst-4::GFP/RFP ratio, acrylamide-induced, 24 h; at 21.8 µM; hits give high values
row,Compound,inhibition
1,CC(C)C(=O)NC(Sc1ccccc1)C(Cl)(Cl)Cl (stereo not given),inactive: -1.89%
2,O=P(Nc1nccs1)(c1ccccc1)c1ccccc1,inactive: 14%
3,c1nnnn1CCn1cnnn1,inactive: 1.6%
4,O=[N+]([O-])c1ccc(O)c(/C=N/Nc2ccc([N+](=O)[O-])cc2[N+](=O)[O-])c1,inactive: -8.45%
5,O=[N+]([O-])c1ncn(CCn2cnc([N+](=O)[O-])n2)n1,inactive: -8.71%
6,CC(=O)NC(SC(=S)N(C)C)C(Cl)(Cl)Cl (stereo not given),inactive: -3.19%
7,O=[As](O)(c1ccccc1)c1ccc(O)cc1,inactive: -3.6%
8,C(Cc1nn[nH]n1)Cc1nn[nH]n1,inactive: -8.81%
9,Nc1ccc([As](=O)(O)c2ccc([N+](=O)[O-])cc2)cc1,inactive: 9.29%
10,O=C(OC1CN2CCC1CC2)c1cccc(Cl)c1 (stereo not given),inactive: 14.6%
11,COc1ccc(N)c([N+](=O)[O-])c1[N+](=O)[O-],inactive: -3.32%
12,Nc1ccc(CCCCOc2ccccc2)cc1,inactive: 6.33%
13,O=P(Nc1ccccn1)(c1ccc(Br)cc1)c1ccc(Br)cc1,inactive: 1.13%
14,CN(C)C1(CNC(=O)c2ccc(Cl)c(S(N)(=O)=O)c2)CCCCC1,inactive: 13.1%
15,O=P(Nc1nc2ccccc2s1)(c1ccccc1)c1ccccc1,inactive: -5.21%
16,C[C@H]1OP(=O)(Oc2ccccc2)[C@H](O)[C@H](O)[C@H]1N=[N+]=[N-] (stereo not given in full),inactive: 8.98%
17,COC(=O)c1cc2c(s1)N=C(c1ccccc1)N(C)P2(=O)N1CCOCC1 (stereo not given),inactive: 14%
18,Cc1ccc(OP(=O)(Nc2ccccn2)Oc2ccc(C)cc2)cc1,inactive: -6.09%
19,CC(=O)NC(SC(=S)N(CC(C)C)CC(C)C)C(Cl)(Cl)Cl (stereo not given),inactive: 6.92%
20,O=C(OC1CN2CCC1CC2)c1ccccc1 (stereo not given),inactive: -10.3%
21,CCC(=O)N1C2C3N(C(=O)CC)C1C1N(C(=O)CC)C(C(N1C(=O)CC)N3C(=O)CC)N2C(=O)CC,inactive: 10.2%
22,CC(NC(=O)COC(=O)C(O)(c1ccccc1)c1ccccc1)c1ccccc1 (stereo not given),inactive: -0.96%
23,Cc1ccccc1OP(=O)(Nc1ccccn1)Oc1ccccc1C,inactive: -7.81%
24,O=c1c2cc([N+](=O)[O-])ccc2[nH]c2c([N+](=O)[O-])cc([N+](=O)[O-])cc12,inactive: -4.93%
25,CN(C)C(=O)Oc1noc2ccccc12,inactive: -16.6%

row,Compound,inhibition
1,CCNC(=S)/N=C(\N)N[N+](=O)[O-],inactive: -10.6%
2,O=C(NC1CCS(=O)(=O)C1)NP(=S)(Oc1ccccc1)Oc1ccccc1 (stereo not given),inactive: 1.4%
3,c1ccc(-c2nn[nH]n2)c(-c2nn[nH]n2)c1,inactive: -4.38%
4,Cc1ccc(NP(=O)(Oc2cccc(C)c2)Oc2cccc(C)c2)nc1,inactive: -1.57%
5,O=P1(N(CCCl)CCCl)OCCC2CCCCN21 (stereo not given),inactive: -3.13%
6,CC(=O)c1ccc(N2CC2c2ccncc2)cc1 (stereo not given),inactive: 13.6%
7,N#C/C(=C\c1ccc(N(CCBr)CCBr)cc1)C(N)=O,inactive: 9.56%
8,COC(=O)C1(C)COP(=O)(NCc2ccccc2)OC1 (stereo not given),inactive: -20.4%
9,Cc1ccccc1CN(C)C(=O)COC(=O)C(O)(c1ccccc1)c1ccccc1,inactive: 5.08%
10,C[C@H]1OP(=O)(Oc2ccccc2)C[C@@H]2O[C@@H]21 (stereo not given in full),inactive: -12.4%
11,C[C@@H]1C=CCP(=O)(Oc2ccccc2)O1 (stereo not given in full),inactive: 18.7%
12,CC(=O)Nc1ccc([As](=O)(O)O)c(O)c1,inactive: 0.992%
13,CC(=O)Nc1ccc(Oc2c([N+](=O)[O-])cc([N+](=O)[O-])cc2[N+](=O)[O-])cc1,inactive: -0.393%
14,O=P1(Nc2nc3ccc(Cl)cc3s2)COc2ccccc2O1 (stereo not given),inactive: 12.7%
15,CCOc1ccc(C2=NCC(CBr)S2)cc1 (stereo not given),inactive: -3.12%
16,CCc1cc(O)c([N+](=O)[O-])c(C)c1[N+](=O)[O-],inactive: 3.93%
17,CC(C)(C)C(=O)NC(Sc1ccccc1)C(Cl)(Cl)Cl (stereo not given),inactive: -9.03%
18,Nc1cc(N)c2nonc2c1[N+](=O)[O-],inactive: -0.173%
19,CC(C)CC(=O)NC(Sc1ccc(Cl)cc1)C(Cl)(Cl)Cl (stereo not given),inactive: 2.48%
20,Oc1ccccc1CNc1ccccn1,inactive: -0.724%
21,O=C(NC(Sc1ccncn1)C(Cl)(Cl)Cl)c1ccccc1 (stereo not given),inactive: -6.58%
22,O=[N+]([O-])C1C(O)C(O)C([N+](=O)[O-])C(O)C1O (stereo not given),inactive: 4.25%
23,NC(=O)c1cc([N+](=O)[O-])cc([N+](=O)[O-])c1N,inactive: 8.63%
24,CN(C(=O)Cc1ccc(Cl)c(Cl)c1)[C@H]1CCCC[C@H]1N1CCCC1,inactive: 14.9%
25,Cc1ccc(N/C(=N/P(=O)(N2CCOCC2)N2CCOCC2)N2CCOCC2)cc1,inactive: 5.24%

row,Compound,inhibition
1,COc1ccccc1OP(=O)(Nc1ccc(C)cn1)Oc1ccccc1OC,inactive: -9.14%
2,Cc1ccc(OP(=O)(Nc2nccs2)Oc2ccc(C)cc2)cc1,inactive: 4.49%
3,CN1CCCC(OC(=O)C(c2ccccc2)c2ccccc2)C1 (stereo not given),inactive: 18.8%
4,Clc1ccc(Cl)c(NC2=NCC(CBr)S2)c1 (stereo not given),inactive: 8.47%
5,CCN(N=Nc1nonc1N)c1nonc1N,inactive: 6.91%
6,Nc1cccc2ccc([As](=O)(O)O)cc12,inactive: 60.8%
7,CC(=O)Nc1ccc([As](=O)(O)O)cc1,inactive: -3.15%
8,O=C(O)c1ccccc1[As](=O)(O)O,inactive: 5.68%
9,CCCC1OP(N)(=O)OCC1CC (stereo not given),inactive: 9.86%
10,O=P(Nc1nc2ccc(Cl)cc2s1)(c1ccccc1)c1ccccc1,inactive: 2.09%
11,CN(C)P(=O)(N(C)C)n1c(Nc2ccccc2)nnc1-c1ccccc1,inactive: 7.72%
12,Cc1cc(SC(NC(=O)c2ccc(F)cc2)C(Cl)(Cl)Cl)ncn1 (stereo not given),inactive: 10.1%
13,CCOP(=O)(Nc1ccccc1)OCC,inactive: 6.61%
14,Cc1ccc(NP(=O)(Oc2ccccc2F)Oc2ccccc2F)nc1,inactive: -4.74%
15,CN(C(=O)Cc1ccc(Cl)c(Cl)c1)[C@H]1CCCC[C@@H]1N1CCCC1,inactive: -7.22%
16,CC(C)(C)C(=O)NC(Sc1ccncn1)C(Cl)(Cl)Cl (stereo not given),inactive: -0.688%
17,O=[N+]([O-])c1ncn(CCn2ncnc2[N+](=O)[O-])n1,inactive: 5.37%
18,COC(=O)C1(C)COP(=O)(Nc2ccccc2)OC1 (stereo not given),inactive: -11.2%
19,O=[N+]([O-])c1cccc(NC2=NCC(CBr)S2)c1 (stereo not given),inactive: -12.2%
20,O=C(O)CNc1ccc([As](=O)(O)O)cc1,inactive: 12.2%
21,O=P1(N(CCCl)CCCl)OCCCS1 (stereo not given),inactive: -1.01%
22,O=C(Nc1cc([As](=O)(O)O)ccc1O)c1ccccc1,inactive: 18.7%
23,Nc1ccc([As](=O)(O)c2ccc(N)cc2)cc1,inactive: 2.52%
24,C[N+]1=C2C=CC=CC=C2SC12C([N+](=O)[O-])=CC([N+](=O)[O-])=C[C-]2[N+](=O)[O-] (stereo not given),inactive: 11.8%
25,CCN(/C(=N/P(=O)(N1CCOCC1)N1CCOCC1)N1CCOCC1)c1ccc(OC)cc1,inactive: 5.61%

row,Compound,inhibition
1,CC(C)c1nc(Nc2ccccc2)n(P(=O)(N(C)C)N(C)C)n1,inactive: -1.28%
2,CC(C)=N/N=C(\N)N[N+](=O)[O-],inactive: 3.32%
3,CN(C)C(=O)OCCc1n(C)cc[n+]1C,inactive: 0.456%
4,CC1CCN(C(=O)Oc2c(Cl)cc(Cl)c3cccnc23)CC1,inactive: -25.6%
5,c1cc(-c2nn[nH]n2)ccc1-c1nn[nH]n1,inactive: 11.6%
6,COc1ccc(C2=NCC(CBr)S2)cc1 (stereo not given),inactive: -1.6%
7,O=[N+]([O-])c1cccc2n[nH]nc12,inactive: -4.56%
8,CC(=O)N1C2C3N(C(C)=O)C1C1N(C(C)=O)C(C(N1C(C)=O)N3C(C)=O)N2C(C)=O,inactive: -1.59%
9,Cc1ccc(NP(=O)(Oc2ccccc2)Oc2ccccc2)nc1,inactive: 0.782%
10,CCc1nc2c(n1)c1c(non1O)c1c2no[n+]1[O-],inactive: -14.3%
11,O=[N+]([O-])c1cc([N+](=O)[O-])c(CCNc2ccccc2)c([N+](=O)[O-])c1,inactive: 6.4%
12,CCOC(=O)c1ccc(NC(=O)C(C)(CCl)SC)cc1 (stereo not given),inactive: 7.99%
13,O=C(OC1CN2CCC1CC2)c1cccc([N+](=O)[O-])c1 (stereo not given),inactive: 17.5%
14,CSc1ccc(Nc2c([N+](=O)[O-])cc([N+](=O)[O-])cc2[N+](=O)[O-])cc1,inactive: 8.12%
15,CCC(C)N(CC(C)C)C(=S)SC(NC(C)=O)C(Cl)(Cl)Cl (stereo not given),inactive: -8.71%
16,COP1(=S)c2c(C)nn(CCC#N)c2N=C(c2ccc(F)cc2)N1C (stereo not given),inactive: 6.51%
17,COC(=O)C1(C)COP(=O)(N2CCCC2)OC1 (stereo not given),inactive: 8.48%
18,O=C(COc1ccccc1)OC1CN2CCC1CC2 (stereo not given),inactive: -5.72%
19,O=C(Nc1ccncc1[N+](=O)[O-])c1ccc([N+](=O)[O-])cc1[N+](=O)[O-],inactive: -5.08%
20,O=C(O)C(=O)c1ccc(N(CCCl)CCCl)cc1,inactive: 7.44%
21,CCOC(=O)Nc1cccc([As](=O)(O)O)c1,inactive: -2.34%
22,O=[N+]([O-])c1ccc(Nc2ccc(Oc3ccc([N+](=O)[O-])cc3[N+](=O)[O-])cc2)c([N+](=O)[O-])c1,inactive: 10.3%
23,O=P(Nc1ccccn1)(c1cccc2ccccc12)c1cccc2ccccc12,inactive: 5.11%
24,Cc1cc(SC(NC=O)C(Cl)(Cl)Cl)ncn1 (stereo not given),inactive: -11.4%
25,CC1CCNP(=O)(N(CCCl)CCCl)O1 (stereo not given),inactive: 10.6%
